{"source": "patent US10588982B2", "about": "“Site-specific covalent chemical ligation to monoclonal and polyclonal immunoglobulin” (The Regents of the University of California, priority 2015, dated 2020)", "key": {"SKBR3 cells [1]": {"tested_on": "SKBR3 cells", "assay": "Cell viability with TrastDS-MMAE conjugates", "assay_type": "cell-based, human", "conditions": "high Her2 expression"}, "MDA-MB-468 cells [2]": {"tested_on": "MDA-MB-468 cells", "assay": "Flow cytometry antigen binding", "assay_type": "cell-based", "conditions": "40 ng/ml, Cy3-labeled anti-human IgG Fc secondary antibody", "description": "(§1) 10×10^5 cells (SKBR-3, MCF7, and MDA-MB-468) were plated. Trastuzumab-peptide crosslinker was prepared as previously mentioned. Trastuzumab-peptide conjugate and/or biotinylated MMAE were then conjugated to avidin at 1:3, 2:2, and 3:1 molar ratio. Cells were dosed with 40 ng/mL modified or naked antibodies for 2 hours at 37° C. Cells were trypsinized, washed with PBS, and incubated with anti-human IgG Fe Cy3 secondary antibody (Thermo, Waltham, Mass.) for 1 hour on ice in the dark. Cells were then washed with cold PBS and resuspended for flow cytometry analysis using a FACScan system (Becton Dickinson, San Jose, Calif.).\n(§2) The site-specific ligation of a nucleotide binding pocket ligand targeting moiety in combination with a peptide affinity element containing linker and a cross-linking agent has broad utility. For example, cytotoxins can be easily conjugated to the C-terminus of the peptide affinity element, e.g., directly or through one or more ethylene glycol linker moieties, for the production of ADCs. As another example, ligands can be easily conjugated to the C-terminus of the peptide affinity element, e.g., directly or through one or more ethylene glycol linker moieties, to create bispecific antibodies. […] Conjugation of a compound to the NBP which has close proximity of to the antigen binding site is a cause of concern. This proximity has the potential to affect the antigen binding ability. We tested the Trast-DS conjugate for binding to SKBR3, MCF7, and MDA-MB-468 cells. […] (FIG. 9a-c). […] TrastDS-MMAE, an immunotoxin generated through our conjugation method also retained the antigen binding ability (FIG. 9d-f)."}, "MCF7 cells [3]": {"tested_on": "MCF7 cells", "assay": "Flow cytometry antigen binding", "assay_type": "cell-based", "conditions": "40 ng/ml, Cy3-labeled anti-human IgG Fc secondary antibody", "description": "as §1, §2"}, "SKBR3 cells [4]": {"tested_on": "SKBR3 cells", "assay": "Flow cytometry antigen binding", "assay_type": "cell-based", "conditions": "40 ng/ml, Cy3-labeled anti-human IgG Fc secondary antibody", "description": "as §1, §2"}, "MDA-MB-468 cells [5]": {"tested_on": "MDA-MB-468 cells", "assay": "Cell viability with TrastDS-MMAE conjugates", "assay_type": "cell-based, human", "conditions": "no Her2 expression"}, "MCF7 cells [6]": {"tested_on": "MCF7 cells", "assay": "Cell viability with TrastDS-MMAE conjugates", "assay_type": "cell-based, human", "conditions": "moderate Her2 expression"}, "SKBR-3 cells": {"tested_on": "SKBR-3 cells", "assay": "Flow cytometry bispecific binding (SAPE)", "assay_type": "cell-based, human", "conditions": "750 μM (LLP2A 250 μM), 1 hr", "description": "(§3) FIG. 11. Bispecific binding abilities for both Her2 and α4β1 integrin are shown. Biotinylated DS peptide was conjugated to trastuzumab creating trast-DS. Trast-DS was dialyzed and crosslinked at pH 8.5. 3:1 ratio of trast-DS to biotinylated LLP2A was bound to streptavidin-PE (SAPE). Controls (trast-DS only and LLP2A only) were conjugated to SAPE at a 4:1 molar ratio. 750 μM trast-DS, 750 μM trast-DS: LLP2A, 250 μM LLP2a were incubated with SKBR-3 human mammary gland/breast adenocarcinoma (A) and Jurkat human T lymphocyte (B) cells for 1 hour. Cells were run through flow cytometry to quantify cells.\n(§4) 3×10^4 cells (SKBR-3 and Jurkat) were plated in a 48 well plate. Trastuzumab-peptide crosslinker was prepared as previously mentioned. Trastuzumab-peptide conjugate and/or biotinylated. LLP2A were then conjugated to SAPE at 4:1 molar ratio. The bispecific samples were conjugated at 3:1:1 molar ratio (trastuzumab-peptide:LLP2A:SAPE). Cells were dosed with (1) 750 nM Trastuzumab-peptide, (2) 250 nM LLP2A, or (3) 750 nM Trastuzumab-peptide/LLP2A conjugate for 1 hr. SKBR-3 cells were trypsinized; Jurkat cells were removed. All cells were washed with cold PBS and resuspended in PBS for flow cytometry analysis using the FACScan system (Becton Dickinson, San Jose, Calif.). […]"}, "Jurkat cells": {"tested_on": "Jurkat cells", "assay": "Flow cytometry bispecific binding (SAPE)", "assay_type": "cell-based, human", "conditions": "750 μM (LLP2A 250 μM), 1 hr", "description": "as §3, §4"}, "[7]": {"conditions": "listed as TrastDS conjugated with MMAE"}}}
{"substance": "TrastDS-MMAE", "values": [{"measurement": "cell viability", "setting": "SKBR3 cells [1]", "value": "decreased cell viability in a dose dependent manner"}, {"measurement": "cell viability", "setting": "SKBR3 cells [1]; [7]", "value": "decreased in cell viability"}, {"measurement": "binding to cells", "setting": "MDA-MB-468 cells [2]", "value": "No binding"}, {"measurement": "binding to cells", "setting": "MCF7 cells [3]", "value": "did not affect binding affinity"}, {"measurement": "binding to cells", "setting": "SKBR3 cells [4]", "value": "did not affect binding affinity"}, {"measurement": "cell viability", "setting": "MDA-MB-468 cells [5]", "value": "not significantly affected"}, {"measurement": "cell viability", "setting": "MDA-MB-468 cells [5]; [7]", "value": "not as pronounced"}, {"measurement": "cell viability", "setting": "MCF7 cells [6]", "value": "decreased cell viability in a dose dependent manner"}, {"measurement": "cell viability", "setting": "MCF7 cells [6]; [7]", "value": "decreased in cell viability"}]}
{"substance": "TrastDS/LLP2A", "values": [{"measurement": "binding to cells", "setting": "SKBR-3 cells", "value": "No loss of affinity"}, {"measurement": "binding to cells", "setting": "Jurkat cells", "value": "some binding affinity was lost"}]}
{"substance": "Trastuzumab: model monoclonal antibody, anti-Her2 [reference compound]", "values": [{"measurement": "binding to cells", "setting": "MDA-MB-468 cells [2]", "value": "No binding"}]}
